Laboratory results reported in US9611277B2 (Janssen Pharmaceutica NV, priority 2013, dated 2017).

Chains of the proteins cited; added tags and fusions are not shown.
UniProt O43614, whole entry: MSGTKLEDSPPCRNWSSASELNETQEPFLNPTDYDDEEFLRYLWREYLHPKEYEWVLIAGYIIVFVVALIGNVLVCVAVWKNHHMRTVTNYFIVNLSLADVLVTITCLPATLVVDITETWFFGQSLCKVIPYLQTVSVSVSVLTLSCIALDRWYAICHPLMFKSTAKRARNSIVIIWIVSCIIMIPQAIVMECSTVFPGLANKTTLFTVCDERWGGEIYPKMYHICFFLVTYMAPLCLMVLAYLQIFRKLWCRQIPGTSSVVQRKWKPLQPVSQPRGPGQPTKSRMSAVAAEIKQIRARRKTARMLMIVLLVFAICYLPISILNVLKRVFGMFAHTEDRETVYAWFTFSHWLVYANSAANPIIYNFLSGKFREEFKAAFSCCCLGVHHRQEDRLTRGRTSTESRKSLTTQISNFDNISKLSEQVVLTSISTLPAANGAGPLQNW

Tests used:
[1] = molecular target: human orexin 1 receptor (Homo sapiens, UniProt O43613); experiment: Human orexin 1 receptor radioligand binding; conditions: read-out: hOX1 Ki
Procedure: (§1) Data are analyzed using pc-Sandy macro and graphed on Graphpad Prism 5. For analysis, each concentration point is averaged from triplicate values and the averaged values are plotted on Graphpad Prism. The IC50 was determined by applying the following equation (GraphPad Prism 5.0, SanDiego) for one site competition where X=log (concentration) and Y=specific binding. Top denotes the total [^3H]-(1-(5-(2-fluoro-phenyl)-2-methyl-thiazol-4-yl)-1-((S)-2-(5-phenyl-(1,3,4)oxadiazol-2-ylmethyl)-pyrrolidin-1-yl)-methanone) binding, bottom denotes the nonspecific [^3H]-(1-(5-(2-fluoro-phenyl)-2-methyl-thiazol-4-yl)-1-((S)-2-(5-phenyl-(1,3,4)oxadiazol-2-ylmethyl)-pyrrolidin-1-yl)-methanone) binding. Graphpad Prism calculates Ki value from IC50 and the pre-determined Kd values for [^3H]-(1-(5-(2-fluoro-phenyl)-2-methyl-thiazol-4-yl)-1-((S)-2-(5-phenyl-(1,3,4)oxadiazol-2-ylmethyl)-pyrrolidin-1-yl)-methanone) and [3H]-EMPA. The Ki for each compound is then uploaded into 3DX. Each run comprises individual compounds in triplicate. The data in Table 1 and Table 2 represent averages from between 2-20 runs
(§2) Rat and Human Orexin 1 Receptor Radioligand Binding Studies
(§3) After centrifugation (2K×G, 5 min at 4° C.), the supernatant was aspirated and the pellets frozen and stored at −80° C. […] Each cell pellet from a 15 cm plate was resuspended in 10 mL, stored on ice, and homogenized for 45 sec prior to addition to the reactions. […] The final concentration of DMSO in the reactions is equal to or less than 0.1%. Total and nonspecific binding was determined in the absence and presence of 10 μM almorexant. The total volume of each reaction is 200 μL (20 μL of diluted compounds, 80 μL of [^3H]-(1-(5-(2-fluoro-phenyl)-2-methyl-thiazol-4-yl)-1-((S)-2-(5-phenyl-(1,3,4)oxadiazol-2-ylmethyl)-pyrrolidin-1-yl)-methanone) diluted in PBS and 100 μL of the cell suspension). […] The plates were washed 3 times by aspirating 30 ml PBS through the plates. Plates were dried in 55° C. oven for 60 min, scintillation fluid was added, and the radioactivity was counted on a Topcount (Packard).

[2] = molecular target: human orexin 2 receptor (Homo sapiens (Human), UniProt O43614); experiment: Human orexin 2 receptor radioligand binding; conditions: read-out: hOX2 Ki
Procedure: as §1
Human Orexin 2 Receptor Radioligand Binding Studies
as §3, with “HEK293 stably expressing human orexin 2 receptor (Genebank accession number NM_001526) were grown to confluency in DMEM (Hyclone, cat # SH30022), 10% FBS, 1× Pen/Strep, 1× NaPyruvate, 10 mM HEPES, 600 ug/ml G418 media on 150 cm^2 tissue culture plates, washed with 5 mM EDTA in PBS (HyClone Dulbecco's Phosphate Buffered Saline 1× with Calcium and Magnesium, Cat # SH30264.01, hereafter referred to simply as PBS) and scraped into 50 ml tubes. After” for “After”, “sec just” for “sec”, “[^3H]-EMPA” for “[^3H]-(1-(5-(2-fluoro-phenyl)-2-methyl-thiazol-4-yl)-1-((S)-2-(5-phenyl-(1,3,4)oxadiazol-2-ylmethyl)-pyrrolidin-1-yl)-methanone)”

[3] = molecular target: rat orexin 1 receptor (Rattus norvegicus, UniProt P56718); experiment: Rat orexin 1 receptor radioligand binding; conditions: read-out: rOX1 Ki
Procedure: as §1, §2, §3

[4] = human orexin 1 receptor, averages of 2-20 runs
[5] = human orexin 2 receptor, averages of 2-20 runs
[6] = rat orexin 1 receptor, averages of 2-20 runs

For `O=C(c1ccccc1-n1nccn1)N1C[C@@H]2CC[C@H]1[C@H](Nc1cnc(C(F)(F)F)cn1)C2` [Example 275, (2-(2H-1,2,3-triazol-2-yl)phenyl)((1S,4R,6R)-6-((5-(trifluoromethyl)pyrazin-2-yl)amino)-2-azabicyclo[2.2.2]octan-2-yl)methanone], the Ki [1] was 5 nM.
`O=C(c1cc(F)ccc1-n1nccn1)N1C[C@H]2C[C@@H](Oc3ccc(C(F)(F)F)cn3)[C@@H]1C2` [Example 43, (5-fluoro-2-(2H-1,2,3-triazol-2-yl)phenyl)((1S,4R,6R)-6-((5-(trifluoromethyl)pyridin-2-yl)oxy)-2-azabicyclo[2.2.1]heptan-2-yl)methanone] was tested, and the Ki [1, 4] was 16 nM.
`O=C(c1cccc(F)c1-c1ncccn1)N1C[C@H]2C[C@@H](Oc3ccc(C(F)(F)F)cn3)[C@@H]1C2` [Example 27, (3-fluoro-2-(pyrimidin-2-yl)phenyl)((1S,4R,6R)-6-((5-(trifluoromethyl)pyridin-2-yl)oxy)-2-azabicyclo[2.2.1]heptan-2-yl)methanone] gave a Ki [1, 4] of 5 nM and a Ki [2, 5] of 725 nM.
Work on `O=C(c1cccc(F)c1-n1nccn1)N1C[C@@H]2CC[C@H]1[C@H](Nc1cnc(C(F)(F)F)cn1)C2` [Example 274, (3-fluoro-2-(2H-1,2,3-triazol-2-yl)phenyl)((1S,4R,6R)-6-((5-(trifluoromethyl)pyrazin-2-yl)amino)-2-azabicyclo[2.2.2]octan-2-yl)methanone] yielded a Ki [1] of 8 nM.
In the case of `Cc1ccc(-n2nccn2)c(C(=O)N2CC3CC(Oc4ccc(C(F)(F)F)cn4)C2C3)n1` [Example 25, (6-methyl-3-(2H-1,2,3-triazol-2-yl)pyridin-2-yl)((1S,4R,6R)-6-((5-(trifluoromethyl)pyridin-2-yl)oxy)-2-azabicyclo[2.2.1]heptan-2-yl)methanone], the Ki [3, 6] is reported as 14 nM.
`COc1cccc(-n2nccn2)c1C(=O)N1C[C@H]2C[C@@H](Oc3ccc(C(F)(F)F)cn3)[C@@H]1C2` [Example 289, (2-methoxy-6-(2H-1,2,3-triazol-2-yl)phenyl)((1S,4R,6R)-6-((5-(trifluoromethyl)pyridin-2-yl)oxy)-2-azabicyclo[2.2.1]heptan-2-yl)methanone] was tested, and the Ki [3, 6] was 14 nM and the Ki [1, 4] was 24 nM.
With `O=C(c1cccc(F)c1-c1ncccn1)N1C[C@@H]2CC[C@H]1[C@H](Oc1ccc(C(F)(F)F)cn1)C2` [Example 73, (3-fluoro-2-(pyrimidin-2-yl)phenyl)((1S,4R,6R)-6-((5-(trifluoromethyl)pyridin-2-yl)oxy)-2-azabicyclo[2.2.2]octan-2-yl)methanone] the Ki [3] was 8 nM and the Ki [2] was 575 nM.
For `O=C(c1ccc(F)cc1-c1ncccn1)N1C[C@@H]2CC[C@H]1[C@H](Oc1ccc(C(F)(F)F)cn1)C2` [Example 259, (4-fluoro-2-(pyrimidin-2-yl)phenyl)((1S,4R,6R)-6-((5-(trifluoromethyl)pyridin-2-yl)oxy)-2-azabicyclo[2.2.2]octan-2-yl)methanone], the Ki [2, 5] was 865 nM.
`Cc1ccc(-n2nccn2)c(C(=O)N2C[C@@H]3CC[C@H]2[C@@H](Nc2cnc(C(F)(F)F)cn2)C3)n1` (racemic) [Example 253, (R/S)-(6-methyl-3-(2H-1,2,3-triazol-2-yl)pyridin-2-yl)(6-((5-(trifluoromethyl)pyrazin-2-yl)amino)-2-azabicyclo[2.2.2]octan-2-yl)methanone] showed a Ki [3, 6] of over 10000 nM and a Ki [2, 5] of over 10000 nM.
With `O=C(c1ccccc1-c1ncc(F)cn1)N1C[C@@H]2CC[C@H]1[C@H](Oc1ccc(C(F)(F)F)cn1)C2` [Example 262, (2-(5-fluoropyrimidin-2-yl)phenyl)((1S,4R,6R)-6-((5-(trifluoromethyl)pyridin-2-yl)oxy)-2-azabicyclo[2.2.2]octan-2-yl)methanone] the Ki [2, 5] was 550 nM.
`O=C(c1ccccc1-n1nccn1)N1C[C@H]2C[C@@H](Oc3ccc(C(F)(F)F)cn3)[C@@H]1C2` [Example 36, (2-(2H-1,2,3-triazol-2-yl)phenyl)((1S,4R,6R)-6-((5-(trifluoromethyl)pyridin-2-yl)oxy)-2-azabicyclo[2.2.1]heptan-2-yl)methanone] gave a Ki [2, 5] of 343 nM.
`O=C(c1cc(F)ccc1-n1nccn1)N1CC2CC(Oc3ccc(C(F)(F)F)cn3)C1C2` (racemic) [Example 14, (R/S)-(5-fluoro-2-(2H-1,2,3-triazol-2-yl)phenyl)(6-((5-(trifluoromethyl)pyridin-2-yl)oxy)-2-azabicyclo[2.2.1]heptan-2-yl)methanone] was tested, and the Ki [3, 6] was 17 nM.

Read-outs that look alike come from different tables or passages of the source.
